Data on one compound can be found in US10065989B2, “Molecular sleds and uses thereof” (The Broad Institute, Inc., priority 2012, dated 2018).

This assay has as its system lambda DNA. As to the kind of experiment: Single-molecule DNA sliding assay on flow-stretched DNA (TIRF microscopy). Also on record: species or system bacteriophage lambda. Particulars: Cy3b-labeled peptide, pH 7.5, 100 pM. The text has this:
To determine whether AVP-pVIc complexes slide on DNA, Applicants used single-molecule fluorescence microscopy (FIG. 10C) with flow-stretched DNA, (FIG. 10D,E) (Kabata, H. et al. Visualization of single molecules of RNA polymerase sliding along DNA. Science 262, 1561-3 (1993); Harada, Y. et al. Single-molecule imaging of RNA polymerase-DNA interactions in real time. Biophys. J. 76, 709-715 (1999) and Blainey, P. C., van Oijen, A. M., Banerjee, A., Verdine, G. L. & Xie, X. S. A base-excision DNA-repair protein finds intrahelical lesion bases by fast sliding in contact with DNA. Proc Natl Acad Sci USA 103, 5752-7 (2006)). […] Biochemistry 40, 13237-13245 (2001)), and furthermore to diffuse rapidly over tens of thousands of base pairs before dissociating from the DNA. […] Despite the optical resolution limit imposed by diffraction, the centroid position of each signal in each frame was determined with 11 nm spatial precision at 3.5 ms time resolution (Gelles, J., Schnapp, B. J. & Sheetz, M. P. Tracking kinesin-driven movements with nanometer-scale precision. Nature 331, 450-3 (1988) and Thompson, R. E., Larson, D. R. & Webb, W. W. Precise nanometer localization analysis for individual fluorescent probes. Biophys J 82, 2775-83 (2002)), FIG. 12B. […]
Due to the speed and duration of sliding by AVP-pVIc complexes, these events were readily identifiable manually. […]

Turning to `N=C(N)NCCC[C@H](NC(=O)[C@H](CCCNC(=N)N)NC(=O)[C@H](CCCNC(=N)N)NC(=O)[C@@H](N)CCCCN)C(=O)N[C@@H](CS)C(=O)N[C@@H](Cc1ccccc1)C(=O)O` [KRRRCF], the Average diffusion coefficient is on record as 25×10^6 bp^2/sec.
